Data: patent US12208079B2, “Enantiomers of A2-73, analogues, and sigma agonist activity” (Anavex Life Sciences Corp., priority 2015, dated 2025)

Tested on: muscarinic M1 receptors
Assay: Isolated organ bioassay, test for antagonist activity, field-stimulated rabbit vas deferens
Type: biochemical
Details: mean, n=2
Description: Prostatic segments of rabbit vas deferens were suspended in 20-ml organ baths containing an oxygenated (95% O2 and 5% CO2) and pre-warmed (30° C.) physiological salt solution of the following composition (in mM): NaCl 118.0, KCl 4.7, MgSO4 0.6, CaCl2) 2.5, KH2PO4 1.2, NaHCO325 and glucose 11.0 (pH 7.4).
Yohimbine (1 μM) and naloxone (1 μM) were also present throughout the experiments to block the α2-adrenergic and opioid receptors, respectively.
The tissues were connected to force transducers for isometric tension recordings. They were stretched to a resting tension of 1 g then allowed to equilibrate for 60 min during which time they were washed repeatedly and the tension readjusted. Thereafter, they were stimulated electrically with square wave pulses (submaximal intensity, 1 msec duration, 0.1 Hz) delivered by a constant current stimulator.
The tissues were exposed to a submaximal concentration of the reference agonist McN-A-343 (1 μM) to obtain a control response.
If it occurred, a recovery of the twitch contraction amplitude by the test compounds indicated an antagonist activity at the M1 receptors.
The parameter measured was the maximum change in the amplitude of the electrically-evoked contractions induced by the compounds.
The results are expressed as a percent of the control response to McN-A-343 (mean values).

CN1CCN(CC(=O)N2c3ccccc3C(=O)Nc3cccnc32)CC1 [pirenzepine, reference compound]
Response to McN-A-343 (1.0E−06M) in the presence of the compound, percent of the control response (compound 1.0E−07M): 4%
Response to McN-A-343 (1.0E−06M) in the presence of the compound, percent of the control response (compound 1.0E−08M): 72%
Response to McN-A-343 (1.0E−06M) in the presence of the compound, percent of the control response (compound 3.0E−08M): 43%
